Source: the kinase profiling compilation of Christmann-Franck et al. (2016)

The chains behind the UniProt entries cited, without tags or fusion partners. Where a name states a change or a piece, a line headed by the entry shows the natural chain unless it says otherwise.
UniProt P49674: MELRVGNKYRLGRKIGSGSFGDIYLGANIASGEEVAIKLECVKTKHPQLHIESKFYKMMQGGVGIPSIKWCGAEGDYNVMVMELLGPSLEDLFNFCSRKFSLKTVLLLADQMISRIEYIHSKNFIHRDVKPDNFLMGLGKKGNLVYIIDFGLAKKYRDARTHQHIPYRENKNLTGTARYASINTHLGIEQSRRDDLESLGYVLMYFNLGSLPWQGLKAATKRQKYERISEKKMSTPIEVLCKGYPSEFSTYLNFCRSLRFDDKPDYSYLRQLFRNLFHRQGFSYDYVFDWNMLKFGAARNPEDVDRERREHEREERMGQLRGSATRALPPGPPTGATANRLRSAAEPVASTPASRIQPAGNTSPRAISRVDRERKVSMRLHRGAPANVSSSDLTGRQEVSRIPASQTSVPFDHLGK
UniProt Q9UBS0: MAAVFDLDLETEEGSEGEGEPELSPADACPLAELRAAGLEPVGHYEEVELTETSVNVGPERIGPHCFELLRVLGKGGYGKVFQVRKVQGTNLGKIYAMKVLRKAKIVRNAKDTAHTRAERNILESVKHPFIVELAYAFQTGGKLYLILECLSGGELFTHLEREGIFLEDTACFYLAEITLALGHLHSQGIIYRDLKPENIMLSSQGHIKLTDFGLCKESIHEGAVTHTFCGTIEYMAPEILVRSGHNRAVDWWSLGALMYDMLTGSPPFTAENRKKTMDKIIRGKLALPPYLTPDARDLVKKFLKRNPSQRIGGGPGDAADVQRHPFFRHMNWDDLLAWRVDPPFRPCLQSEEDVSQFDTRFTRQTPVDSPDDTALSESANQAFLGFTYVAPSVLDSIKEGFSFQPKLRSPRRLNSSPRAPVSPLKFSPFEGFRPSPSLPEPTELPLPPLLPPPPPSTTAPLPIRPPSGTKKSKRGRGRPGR
UniProt O43781: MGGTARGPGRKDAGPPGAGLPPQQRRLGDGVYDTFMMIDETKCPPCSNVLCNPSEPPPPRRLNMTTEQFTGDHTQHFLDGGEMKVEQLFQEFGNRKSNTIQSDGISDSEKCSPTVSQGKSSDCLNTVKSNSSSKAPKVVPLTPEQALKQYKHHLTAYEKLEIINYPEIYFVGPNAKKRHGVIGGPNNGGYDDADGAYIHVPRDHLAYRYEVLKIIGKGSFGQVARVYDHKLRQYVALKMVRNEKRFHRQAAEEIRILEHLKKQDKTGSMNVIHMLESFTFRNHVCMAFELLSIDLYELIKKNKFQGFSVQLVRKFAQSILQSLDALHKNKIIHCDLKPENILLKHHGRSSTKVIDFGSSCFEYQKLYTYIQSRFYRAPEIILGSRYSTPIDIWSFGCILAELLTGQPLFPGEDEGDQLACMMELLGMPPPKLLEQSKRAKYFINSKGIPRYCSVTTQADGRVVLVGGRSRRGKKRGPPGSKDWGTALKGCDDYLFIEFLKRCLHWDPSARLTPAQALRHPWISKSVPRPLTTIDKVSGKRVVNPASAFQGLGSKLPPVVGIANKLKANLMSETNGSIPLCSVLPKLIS
UniProt P09619, whole entry, looked up: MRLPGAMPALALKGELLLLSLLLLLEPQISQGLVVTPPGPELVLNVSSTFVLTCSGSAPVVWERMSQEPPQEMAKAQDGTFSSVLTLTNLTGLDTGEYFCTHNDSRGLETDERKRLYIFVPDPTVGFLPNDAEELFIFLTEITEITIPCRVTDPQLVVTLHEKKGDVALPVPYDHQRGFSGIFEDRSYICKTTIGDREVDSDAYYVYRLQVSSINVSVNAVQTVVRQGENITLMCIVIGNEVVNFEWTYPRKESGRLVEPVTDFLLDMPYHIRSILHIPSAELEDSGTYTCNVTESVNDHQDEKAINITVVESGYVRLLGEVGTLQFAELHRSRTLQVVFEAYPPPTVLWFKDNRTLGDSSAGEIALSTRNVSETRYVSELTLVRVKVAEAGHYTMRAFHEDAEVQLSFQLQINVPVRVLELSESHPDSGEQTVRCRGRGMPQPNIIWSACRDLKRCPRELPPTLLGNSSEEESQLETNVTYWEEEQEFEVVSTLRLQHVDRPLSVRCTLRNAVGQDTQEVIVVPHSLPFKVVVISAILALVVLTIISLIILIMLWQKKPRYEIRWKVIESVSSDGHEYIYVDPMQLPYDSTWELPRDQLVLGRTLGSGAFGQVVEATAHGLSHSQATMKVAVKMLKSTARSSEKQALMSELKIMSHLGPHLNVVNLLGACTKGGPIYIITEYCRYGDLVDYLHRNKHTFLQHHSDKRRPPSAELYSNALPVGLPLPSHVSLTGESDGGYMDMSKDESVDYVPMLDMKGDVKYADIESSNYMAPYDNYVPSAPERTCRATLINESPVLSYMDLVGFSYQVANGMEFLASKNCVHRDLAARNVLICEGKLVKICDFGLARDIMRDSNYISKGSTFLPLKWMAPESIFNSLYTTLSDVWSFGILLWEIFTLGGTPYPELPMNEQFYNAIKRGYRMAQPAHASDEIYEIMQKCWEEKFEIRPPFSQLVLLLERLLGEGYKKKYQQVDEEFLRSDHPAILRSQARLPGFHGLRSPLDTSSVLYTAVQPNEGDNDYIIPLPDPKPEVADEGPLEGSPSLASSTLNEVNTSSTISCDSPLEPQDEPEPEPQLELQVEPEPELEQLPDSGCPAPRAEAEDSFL
UniProt Q9UIK4: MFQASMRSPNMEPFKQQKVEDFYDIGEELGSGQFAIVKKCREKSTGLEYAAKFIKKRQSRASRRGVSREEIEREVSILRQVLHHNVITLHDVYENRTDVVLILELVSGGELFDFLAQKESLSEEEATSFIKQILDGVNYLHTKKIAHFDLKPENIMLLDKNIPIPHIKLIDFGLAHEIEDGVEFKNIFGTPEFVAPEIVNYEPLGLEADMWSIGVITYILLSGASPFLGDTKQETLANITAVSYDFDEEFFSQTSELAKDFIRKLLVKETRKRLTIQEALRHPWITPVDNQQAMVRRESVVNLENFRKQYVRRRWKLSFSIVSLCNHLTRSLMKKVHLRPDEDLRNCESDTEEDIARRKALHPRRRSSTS
UniProt P31749: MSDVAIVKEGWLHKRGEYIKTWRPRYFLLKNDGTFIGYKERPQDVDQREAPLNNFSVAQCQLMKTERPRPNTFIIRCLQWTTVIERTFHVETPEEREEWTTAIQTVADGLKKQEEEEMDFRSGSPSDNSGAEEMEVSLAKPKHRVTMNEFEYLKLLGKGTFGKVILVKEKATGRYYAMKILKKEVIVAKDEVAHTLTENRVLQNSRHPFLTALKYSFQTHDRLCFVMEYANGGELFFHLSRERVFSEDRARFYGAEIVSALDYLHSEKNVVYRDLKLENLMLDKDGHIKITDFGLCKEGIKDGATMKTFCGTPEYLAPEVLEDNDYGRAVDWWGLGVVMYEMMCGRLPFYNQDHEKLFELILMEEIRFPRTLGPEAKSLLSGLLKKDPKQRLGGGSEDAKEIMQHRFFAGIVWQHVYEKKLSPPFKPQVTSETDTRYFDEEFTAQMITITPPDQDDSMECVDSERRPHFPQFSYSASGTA
UniProt O75385: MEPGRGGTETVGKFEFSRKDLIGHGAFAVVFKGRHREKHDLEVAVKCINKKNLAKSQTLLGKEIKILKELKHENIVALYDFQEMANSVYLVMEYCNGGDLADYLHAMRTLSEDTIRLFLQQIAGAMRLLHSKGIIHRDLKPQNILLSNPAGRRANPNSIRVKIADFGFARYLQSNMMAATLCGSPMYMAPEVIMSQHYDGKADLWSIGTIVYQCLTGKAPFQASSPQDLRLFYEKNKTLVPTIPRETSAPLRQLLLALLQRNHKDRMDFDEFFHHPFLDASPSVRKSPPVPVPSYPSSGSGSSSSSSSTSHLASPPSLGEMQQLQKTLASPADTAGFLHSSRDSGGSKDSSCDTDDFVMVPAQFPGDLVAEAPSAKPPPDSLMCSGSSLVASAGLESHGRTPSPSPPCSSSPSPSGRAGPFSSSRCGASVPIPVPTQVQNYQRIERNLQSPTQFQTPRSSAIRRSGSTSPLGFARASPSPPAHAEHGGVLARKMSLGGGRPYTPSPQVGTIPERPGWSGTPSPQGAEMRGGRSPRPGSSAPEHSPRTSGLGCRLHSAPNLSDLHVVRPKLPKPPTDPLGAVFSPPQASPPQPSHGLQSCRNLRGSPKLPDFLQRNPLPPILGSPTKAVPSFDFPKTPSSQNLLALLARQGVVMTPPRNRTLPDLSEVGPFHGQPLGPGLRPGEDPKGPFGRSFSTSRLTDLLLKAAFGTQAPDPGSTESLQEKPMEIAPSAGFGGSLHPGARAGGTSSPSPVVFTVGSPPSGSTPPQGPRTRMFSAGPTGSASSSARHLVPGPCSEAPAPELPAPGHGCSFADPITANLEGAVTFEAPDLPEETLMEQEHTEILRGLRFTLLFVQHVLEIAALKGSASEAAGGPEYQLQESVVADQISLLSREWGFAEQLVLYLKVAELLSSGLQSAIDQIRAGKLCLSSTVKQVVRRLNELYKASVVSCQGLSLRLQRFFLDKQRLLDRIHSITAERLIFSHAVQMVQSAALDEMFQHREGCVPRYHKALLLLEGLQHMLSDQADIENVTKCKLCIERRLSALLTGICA
UniProt Q13153, whole entry, looked up: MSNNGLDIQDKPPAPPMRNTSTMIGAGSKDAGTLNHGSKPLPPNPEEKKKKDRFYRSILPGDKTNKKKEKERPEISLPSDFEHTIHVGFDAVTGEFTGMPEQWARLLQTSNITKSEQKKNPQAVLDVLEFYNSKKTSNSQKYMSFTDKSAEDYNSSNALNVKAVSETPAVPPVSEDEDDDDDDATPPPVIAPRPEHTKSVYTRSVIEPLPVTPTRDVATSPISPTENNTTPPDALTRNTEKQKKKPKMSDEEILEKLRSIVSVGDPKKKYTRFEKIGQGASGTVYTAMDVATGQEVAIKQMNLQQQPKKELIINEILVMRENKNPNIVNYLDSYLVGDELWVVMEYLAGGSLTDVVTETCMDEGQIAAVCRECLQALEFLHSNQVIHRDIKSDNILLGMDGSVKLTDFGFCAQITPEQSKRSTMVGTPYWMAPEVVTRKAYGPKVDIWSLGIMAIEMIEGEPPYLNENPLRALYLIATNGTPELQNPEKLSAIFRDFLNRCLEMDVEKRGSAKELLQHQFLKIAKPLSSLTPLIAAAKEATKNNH
UniProt P14616: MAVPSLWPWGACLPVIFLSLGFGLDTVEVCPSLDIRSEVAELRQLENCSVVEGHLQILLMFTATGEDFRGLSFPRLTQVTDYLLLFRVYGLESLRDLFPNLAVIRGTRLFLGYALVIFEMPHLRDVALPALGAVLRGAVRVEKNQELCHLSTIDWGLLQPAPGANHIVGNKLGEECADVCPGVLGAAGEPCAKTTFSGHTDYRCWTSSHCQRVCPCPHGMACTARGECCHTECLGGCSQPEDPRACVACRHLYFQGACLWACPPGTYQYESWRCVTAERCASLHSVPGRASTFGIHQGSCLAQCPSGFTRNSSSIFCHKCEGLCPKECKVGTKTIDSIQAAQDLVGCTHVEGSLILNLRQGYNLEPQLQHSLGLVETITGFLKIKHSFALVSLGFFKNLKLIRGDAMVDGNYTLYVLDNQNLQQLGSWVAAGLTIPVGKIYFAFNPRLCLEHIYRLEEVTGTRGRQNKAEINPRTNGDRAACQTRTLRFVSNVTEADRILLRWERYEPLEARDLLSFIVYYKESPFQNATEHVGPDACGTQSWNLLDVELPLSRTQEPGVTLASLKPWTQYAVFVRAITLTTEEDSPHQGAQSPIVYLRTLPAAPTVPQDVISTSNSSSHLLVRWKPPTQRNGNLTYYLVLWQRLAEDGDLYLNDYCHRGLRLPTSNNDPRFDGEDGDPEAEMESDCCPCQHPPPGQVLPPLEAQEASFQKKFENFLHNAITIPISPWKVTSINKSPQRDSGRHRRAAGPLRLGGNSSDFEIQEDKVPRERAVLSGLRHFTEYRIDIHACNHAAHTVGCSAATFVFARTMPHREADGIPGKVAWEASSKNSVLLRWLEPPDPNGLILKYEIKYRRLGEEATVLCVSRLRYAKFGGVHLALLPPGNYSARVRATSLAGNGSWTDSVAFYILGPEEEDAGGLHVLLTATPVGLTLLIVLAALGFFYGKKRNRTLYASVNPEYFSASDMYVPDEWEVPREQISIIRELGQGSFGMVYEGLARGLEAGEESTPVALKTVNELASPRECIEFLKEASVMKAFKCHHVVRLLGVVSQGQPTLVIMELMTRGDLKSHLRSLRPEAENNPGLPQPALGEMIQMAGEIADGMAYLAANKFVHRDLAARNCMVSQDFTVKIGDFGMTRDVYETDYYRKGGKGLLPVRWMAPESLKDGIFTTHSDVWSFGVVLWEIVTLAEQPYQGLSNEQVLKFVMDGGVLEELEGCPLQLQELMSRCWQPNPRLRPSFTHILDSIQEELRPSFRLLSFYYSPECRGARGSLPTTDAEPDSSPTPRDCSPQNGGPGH

How the values were obtained:
Test in all cases: radiometric filter-binding kinase assay, Kinase HotSpot
Settings in all cases: compound 0.5 µM; ATP 10 µM
AURKA (human) = AURKA (human) (UniProt O14965)
EPHA1 (human) = EPHA1 (human) (UniProt P21709)
CLK3 (human) = CLK3 (human) (UniProt P49761)
BRSK1 (human) = BRSK1 (human) (UniProt Q8TDC3)
CSNK1E (human) = CSNK1E (human) (UniProt P49674)
MST4 (human) = MST4 (human) (UniProt Q9P289)
RPS6KB2 (human) = RPS6KB2 (human) (UniProt Q9UBS0)
CSNK1G1 (human) = CSNK1G1 (human) (UniProt Q9HCP0)
CLK1 (human) = CLK1 (human) (UniProt P49759)
AXL (human) = AXL (human) (UniProt P30530)
DYRK3 (human) = DYRK3 (human) (UniProt O43781)
TAOK1 (human) = TAOK1 (human) (UniProt Q7L7X3)
NEK7 (human) = NEK7 (human) (UniProt Q8TDX7)
CAMK2G (human) = CAMK2G (human) (UniProt Q13555)
PDGFRB (human) = PDGFRB (human) (UniProt P09619)
PAK7 (human) = PAK7 (human) (UniProt Q9P286)
PDPK1 (human) = PDPK1 (human) (UniProt O15530)
ALK (human) = ALK (human) (UniProt Q9UM73)
MYLK2 (human) = MYLK2 (human) (UniProt Q9H1R3)
MAPK14 (human) = MAPK14 (human) (UniProt Q16539)
KDR (human) = KDR (human) (UniProt P35968)
DAPK2 (human) = DAPK2 (human) (UniProt Q9UIK4)
SRPK1 (human) = SRPK1 (human) (UniProt Q96SB4)
PRKCE (human) = PRKCE (human) (UniProt Q02156)
[1] = target: JAK1 JH1 catalytic (human) (UniProt P23458)
PLK3 (human) = PLK3 (human) (UniProt Q9H4B4)
AKT1 (human) = AKT1 (human) (UniProt P31749)
ULK1 (human) = ULK1 (human) (UniProt O75385)
MELK (human) = MELK (human) (UniProt Q14680)
WNK3 (human) = WNK3 (human) (UniProt Q9BYP7)
NEK1 (human) = NEK1 (human) (UniProt Q96PY6)
PAK1 (human) = PAK1 (human) (UniProt Q13153)
NUAK1 (human) = NUAK1 (human) (UniProt O60285)
MLTK (human) = MLTK (human) (UniProt Q9NYL2)
MAPK12 (human) = MAPK12 (human) (UniProt P53778)
NEK9 (human) = NEK9 (human) (UniProt Q8TD19)
PTK6 (human) = PTK6 (human) (UniProt Q13882)
PRKCD (human) = PRKCD (human) (UniProt Q05655)
FER (human) = FER (human) (UniProt P16591)
NLK (human) = NLK (human) (UniProt Q9UBE8)
INSRR (human) = INSRR (human) (UniProt P14616)
ACVRL1 (human) = ACVRL1 (human) (UniProt P37023)

## CO[C@H]1[C@@H](OC)C[C@H](C)[C@@H](OC)C2=CC(=O)C=C(NC(=O)/C(C)=C\C=C/[C@H](OC)[C@@H](OC(N)=O)/C(C)=C\[C@@H]1C)C2=O
AURKA (human)
  residual activity: 91%
EPHA1 (human)
  residual activity: 103%
CLK3 (human)
  residual activity: 93.1%
BRSK1 (human)
  residual activity: 97.9%
CSNK1E (human)
  residual activity: 85.9%
MST4 (human)
  residual activity: 85.3%
RPS6KB2 (human)
  residual activity: 105%
CSNK1G1 (human)
  residual activity: 101%
CLK1 (human)
  residual activity: 101%
AXL (human)
  residual activity: 95.3%
DYRK3 (human)
  residual activity: 101%
TAOK1 (human)
  residual activity: 99.3%
NEK7 (human)
  residual activity: 100%
CAMK2G (human)
  residual activity: 89.6%
PDGFRB (human)
  residual activity: 104%
PAK7 (human)
  residual activity: 93.8%
PDPK1 (human)
  residual activity: 102%
ALK (human)
  residual activity: 89.7%
MYLK2 (human)
  residual activity: 93.7%
MAPK14 (human)
  residual activity: 93.9%
KDR (human)
  residual activity: 90.3%
DAPK2 (human)
  residual activity: 95.8%
SRPK1 (human)
  residual activity: 88.7%
PRKCE (human)
  residual activity: 98.3%
[1]
  residual activity: 99%
PLK3 (human)
  residual activity: 100%
AKT1 (human)
  residual activity: 93.3%
ULK1 (human)
  residual activity: 92.7%
MELK (human)
  residual activity: 97.9%
WNK3 (human)
  residual activity: 99.4%
NEK1 (human)
  residual activity: 100%
PAK1 (human)
  residual activity: 94.1%
NUAK1 (human)
  residual activity: 90.1%
MLTK (human)
  residual activity: 92.2%
MAPK12 (human)
  residual activity: 95.4%
NEK9 (human)
  residual activity: 103%
PTK6 (human)
  residual activity: 104%
PRKCD (human)
  residual activity: 96.8%
FER (human)
  residual activity: 88.2%
NLK (human)
  residual activity: 102%
INSRR (human)
  residual activity: 95.2%
ACVRL1 (human)
  residual activity: 101%
